Data taken from PubChem BioAssay AID504810 (National Center for Advancing Translational Sciences (NCATS), 2011).
In all, about 330,000 compounds went through this assay and about 670 (0.2%) were called active. Listed are the inconclusive results; actives and inactives stand elsewhere.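 The calls were made as follows: active = activity change below a set negative limit, meaning inhibition stronger than a set level (cut at about -70% in these data); inconclusive = activity change between two set negative limits; inactive = the rest.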

Sequences of proteins named here, by UniProt entry; tags and fusion partners are left off.
UniProt P16473, whole entry, looked up: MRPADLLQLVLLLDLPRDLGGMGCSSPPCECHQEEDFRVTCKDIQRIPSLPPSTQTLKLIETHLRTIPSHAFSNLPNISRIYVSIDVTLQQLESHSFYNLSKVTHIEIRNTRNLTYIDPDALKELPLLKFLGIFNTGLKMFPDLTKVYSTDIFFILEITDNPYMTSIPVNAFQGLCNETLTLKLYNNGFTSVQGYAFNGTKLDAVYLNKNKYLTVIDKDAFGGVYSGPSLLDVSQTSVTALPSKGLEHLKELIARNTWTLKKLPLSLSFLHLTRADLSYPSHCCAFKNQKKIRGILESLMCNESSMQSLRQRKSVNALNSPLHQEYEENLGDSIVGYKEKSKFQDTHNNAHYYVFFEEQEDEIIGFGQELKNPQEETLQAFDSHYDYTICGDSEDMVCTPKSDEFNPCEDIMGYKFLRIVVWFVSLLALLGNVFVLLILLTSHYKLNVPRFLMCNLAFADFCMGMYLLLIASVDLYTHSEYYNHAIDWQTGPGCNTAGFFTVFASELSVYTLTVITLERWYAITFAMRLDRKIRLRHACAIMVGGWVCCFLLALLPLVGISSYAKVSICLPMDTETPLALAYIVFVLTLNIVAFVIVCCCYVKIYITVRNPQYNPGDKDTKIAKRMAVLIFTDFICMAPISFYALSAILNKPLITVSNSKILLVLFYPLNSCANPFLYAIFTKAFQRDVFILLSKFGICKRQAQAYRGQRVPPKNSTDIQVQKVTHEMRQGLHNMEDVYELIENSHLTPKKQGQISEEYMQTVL

molecular target: Thyrotropin receptor (Homo sapiens) (UniProt P16473); assay: Antagonists of the Thyroid Stimulating Hormone Receptor: HTS campaign; details: TSHR-expressing cells, TSH-stimulated cAMP HTRF, 2 h; at 11.5 µM; hits give low values
Description: The thyroid-stimulating hormone receptor (TSHR) is a member of the 7 trans-membrane-spanning receptor (7TMR) family of cell surface receptors. TSHR-mediated hyperthyroidism is important in thyroid pathology. The development of small molecule antagonists of TSHR may lead to therapeutic approaches for TSHR-mediated hyperthyroidism caused by constitutively activating mutations or stimulating auto-antibodies associated with Graves' disease. Graves' disease is the leading cause of hyperthyroidism and is caused by autoantibodies that stimulate TSHR (TsAbs) causing thyroid growth and unregulated overproduction of thyroid hormones and existing treatments have liabilities (agranulocytosis). In addition, TSHRs are known to be expressed in multiple extrathyroidal tissues including bone, brain, kidney, testis, fat and cells of the immune system but the role of the TSHR in these tissues is not clear. Therefore, TSHR antagonists/inverse agonists could be used as probes of extrathyroidal TSHR function. Finally, TSHR inverse agonists, which are a subclass of antagonists that inhibit agonist-independent (or basal or constitutive) TSHR signaling, could be used to inhibit TSH-independent signaling in patients with recurrent or metastatic thyroid cancer who are receiving thyroid hormone to suppress TSH. […]
1. […] The result is obtained by using a ViewLux read-out with HTRF settings.
% is scaled to controls: 0 for no effect and ±100 for the full control effect.

| SMILES | activity change, negative = inhibition |
| --- | --- |
| O=c1c2cc([N+](=O)[O-])ccc2[nH]c2c([N+](=O)[O-])cc([N+](=O)[O-])cc12 | inconclusive: -61.3% |
